Experimental data taken from patent publication US4689339A, “4-dihydroinden-2-yl-, 4-tetrahydronaphth-2-yl-, and 4-dihydrobenzofuran-2-ylimidazoles, useful to block α2 -adrenergic receptors” (Farmos Yhtyma oy, priority 1984, dated 1987).

Sequences of proteins named here, by UniProt entry; tags and fusion partners are left off.
UniProt P22909, whole entry: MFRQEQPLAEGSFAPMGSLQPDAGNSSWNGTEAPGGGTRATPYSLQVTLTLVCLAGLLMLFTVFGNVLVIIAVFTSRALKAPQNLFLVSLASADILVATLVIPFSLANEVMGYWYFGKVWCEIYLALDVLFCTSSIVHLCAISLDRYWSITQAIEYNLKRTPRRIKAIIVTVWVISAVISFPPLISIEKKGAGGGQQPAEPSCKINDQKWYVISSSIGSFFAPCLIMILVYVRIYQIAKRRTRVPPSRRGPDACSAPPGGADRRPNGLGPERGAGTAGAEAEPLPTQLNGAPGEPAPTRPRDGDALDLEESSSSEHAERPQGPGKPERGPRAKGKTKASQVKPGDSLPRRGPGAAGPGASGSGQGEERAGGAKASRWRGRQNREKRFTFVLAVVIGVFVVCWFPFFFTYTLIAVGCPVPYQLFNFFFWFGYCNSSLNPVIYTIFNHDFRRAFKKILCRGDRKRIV

Molecular target: T1, α2-receptors of the central nervous system (Rattus norvegicus, UniProt P22909)
T1 construct: In anaesthetized rat, a standard dose of detomidine was administered intravenously; from tissue; host or cells: whole anaesthetized rat, in vivo (central nervous system)
Experiment: α2-antagonism in vivo, reversal of detomidine-induced mydriasis in anaesthetized rat
Settings: iv, read-out: ED50, 50 percent reversal of detomidine-induced mydriasis
Protocol: The central α2 -blocking effect of the studied substances under in vivo conditions was studied using two methods. First, it is known that in the rat α2 -agonists induce dilatation of the pupil (mydriasis) which effect is transmitted via α2 -receptors of the central nervous system. In anaesthetized rat, a standard dose of detomidine was administered intravenously. Thereafter increasing doses of the studied antagonist were injected intravenously and the reversal of detomidine-induced mydriasis was followed. The ED50 value of the antagonist, i.e. the dose producing a 50 percent reversal, was determined.

| Compound | ED50 |
| --- | --- |
| CCC1(c2cnc[nH]2)Cc2ccccc2C1 [Compound XV] | 6 µg/kg |
| COc1cc2nc(N3CCN(C(=O)c4ccco4)CC3)nc(N)c2cc1OC [Prazosin] | > 1000 µg/kg |
